Converted amounts (≈) assume the structure as drawn.
Assay: Thermodynamic solubility in water for injection
Format: physicochemical
Settings: water for injection (pH 6.4), 37 °C, 6 hours

## COc1c(N2CCNC(C)C2)c(F)cc2c(=O)c(C(=O)NCCCC(=O)O)cn(C3CC3)c12 (racemic) [CP-GFX, (±)-4-(1-cyclopropyl-6-fluoro-8-methoxy-7-(3-methylpiperazin-1-yl)-4-oxo-1,4-dihydroquinoline-3-carboxamido)butanoic acid]
  Solubility: 6 mM (≈ 2760 µg/mL)

— paper PMC3926802 (Molecular pharmaceutics, 2012)
